This note sets out measurements from ChEMBL document CHEMBL1135692, “Structure-activity relationships of the melanocortin tetrapeptide Ac-His-D-Phe-Arg-Trp-NH2 at the mouse melanocortin receptors. 4. Modifications at the Trp position” (J Med Chem, 2002).

Sequences of proteins named here, by UniProt entry; tags and fusion partners are left off. A change or cut given only in a name is not applied to a line headed by its entry.
UniProt Q01727: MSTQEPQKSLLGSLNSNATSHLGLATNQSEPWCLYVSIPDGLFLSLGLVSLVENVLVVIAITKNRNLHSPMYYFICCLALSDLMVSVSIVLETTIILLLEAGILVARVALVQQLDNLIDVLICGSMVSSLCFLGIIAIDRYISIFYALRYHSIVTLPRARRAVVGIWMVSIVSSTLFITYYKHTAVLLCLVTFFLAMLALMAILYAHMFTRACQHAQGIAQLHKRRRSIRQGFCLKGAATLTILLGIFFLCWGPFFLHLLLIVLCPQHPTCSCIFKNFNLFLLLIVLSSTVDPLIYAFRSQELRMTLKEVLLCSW

The experiment has as its target Melanocyte-stimulating hormone receptor (Mus musculus, UniProt Q01727). The experiment is described as follows: Activity in mouse melanocortin-1 receptor stably expressed in HEK293 cells. It is filed as cell-based.

The structures appear in SMILES notation.

One may read the EC50 as the concentration giving half of the maximal effect. Read a low EC50 as higher potency in that assay. For the compound `CC(=O)N[C@@H](Cc1cnc[nH]1)C(=O)NC(Cc1ccccc1)C(=O)N[C@@H](CCCNC(=N)N)C(=O)NC(Cc1c[nH]c2ccccc12)C(N)=O` (stereo in doubt), the EC50 was 20.1 nM.
